# Measured affinities in a library of Ab-14 heavy chain variants

Data: MIT Lincoln Laboratory AlphaSeq set, Li et al. 2023, doi:10.1038/s41467-023-39022-2, as distributed in FLAb.

The target is the same throughout: PDVDLGDISGINAS, from the HR2 region of SARS-CoV-2 spike.

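The parent was found by panning a naive human phage display library on the peptide. These sequences belong to a second round, designed from the earlier measurements on random variants of the parent. Group labels follow the data file (Ctrl: baseline library sampled from a position-specific scoring matrix, with some repeated check sequences; En: ensemble of fine-tuned language models; GP: Gaussian process model; GPLM: also part of the Gaussian process libraries; HC: hill climbing; Gen: genetic algorithm; Gibbs: Gibbs sampling; a sequence that several methods proposed may carry one label only). AlphaSeq pools MATa yeast showing the antibodies with MATalpha yeast showing the peptide. Pairs that bind mate more often; barcode pairs of the diploids are counted by sequencing. Each replicate has its own calibration line, from reference interactions of the BCL2 family. Mating was done six times.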

Parent scFv Ab-14: VH joined to VL by a 15-residue (Gly4Ser)3 linker. Changes lie in the heavy chain CDRs alone.
VH: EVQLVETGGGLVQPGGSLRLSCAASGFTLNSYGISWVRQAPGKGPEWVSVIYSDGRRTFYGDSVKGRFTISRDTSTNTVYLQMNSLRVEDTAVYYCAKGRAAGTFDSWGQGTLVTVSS
VL: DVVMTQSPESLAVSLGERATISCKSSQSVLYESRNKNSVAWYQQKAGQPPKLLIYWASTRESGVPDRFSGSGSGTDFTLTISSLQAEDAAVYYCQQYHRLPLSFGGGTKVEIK

The parent's heavy chain CDRs are GFTLNSYGIS, VIYSDGRRTFYGDSVK, GRAAGTFDS; each variant's own CDRs replace them letter for letter. The read-out is the apparent dissociation constant on a log10 scale (nM): the lower, the stronger. "ND" marks a missing value. The strain was present, yet no cells mated with the target were sequenced in that replicate, which points to weak or no binding. Nonspecific signal, from three strains lacking the peptide, appeared in 1% of pairings of all heavy chain designs, centred on 2.08 (5% of these signals below 0.84); values are not corrected for it. The control count says in how many pairings with the empty strains this scFv gave a signal, with their mean in brackets. In the paper, a design with two or fewer of six values counts as a poor binder. Values of this round are not directly comparable with the first-round values of the same sequences.

| # | replicates, log10 nM | empty controls | CDR-H1 | CDR-H2 | CDR-H3 | group |
|---|---|---|---|---|---|---|
| 1 | ND ND ND ND 2.86 ND | 1/18 (3.42) | GQQLDQYGIS | VIYADGVRTSYTNDVK | GEHAGTFMQ | En_Gibbs |
| 2 | 0.53 -0.11 0.22 -0.23 0.05 0.13 | 0/18 | GFELNSYGIS | VIYADGRRTFYGDSVK | GNAAGTFDD | GP_Gibbs |
| 3 | -0.51 -0.48 -0.67 -0.56 -0.50 -0.34 | 0/18 | GFNLEDYGIS | VIYADGRRTAYADSVK | GKVAGTFDV | En_HC |
| 4 | 0.00 -0.21 -0.23 -0.40 -0.55 -0.01 | 0/18 | GFDLDEYGIS | VIYADGRRTAYSDSVK | GNNAGTFDL | En_Gen |
| 5 | 0.42 0.32 0.26 0.07 0.80 0.77 | 0/18 | GFDLNSYGIS | VIYSDGRRTFYKDSVK | GRTAGTFDS | GPLM_Gen |
| 6 | ND 0.85 ND 0.32 -0.04 1.84 | 0/18 | GFVLNEYGIS | VIYSDGRRTFYHDSVK | GRAAGTFDS | GPLM_Gibbs |
| 7 | 0.85 0.58 0.84 0.49 0.38 1.01 | 0/18 | GFDLNEYGIS | VIYADGRRTFYADSVK | GQAAGTFTL | En_HC |
| 8 | -0.06 0.02 -0.29 -0.28 -0.16 0.09 | 0/18 | GFDLNEYGIS | VIYADGRRTFYADSVK | GEVGGTFDV | En_HC |
| 9 | -0.14 0.34 0.07 -0.03 0.05 -0.11 | 1/18 (4.12) | GFSLNEYGIS | VIYSDGKRTFYGDRVK | GRTAGTFDS | GP_Gen |
| 10 | ND ND ND ND ND ND | 0/18 | GFTLNEYGIS | VIYSDGRRTFYGDSVK | GRAAGTFNS | Ctrl |
| 11 | ND ND ND 2.23 ND ND | 0/18 | MFSLNEYGIS | VIYSDGRRTFYGDSVK | GRNAGTFDS | GP_Gen |
| 12 | 0.69 -0.13 0.13 -0.45 -0.43 -0.01 | 0/18 | GFDLNEYGIS | VIYADGMRTAYTDSVK | GEFAGTFDS | En_HC |
| 13 | ND ND 1.83 2.34 1.89 1.70 | 0/18 | GFTLNSYGIS | VIYSDGRRTFYDDSVK | GRAAGTFDD | Ctrl |
| 14 | ND ND ND ND ND ND | 0/18 | GFHLNSYGIS | VIYSDGRRTFYGDSVK | GRAAGTFDQ | Ctrl |
| 15 | ND ND ND ND ND ND | 0/18 | GFQLDEYGIS | VIYADGERTMYSNRVK | GNEGGTFDM | En_Gibbs |
| 16 | 0.71 0.85 0.03 0.58 0.68 0.23 | 1/18 (1.83) | GFSLNSYGIS | VIYSDGRRTFYADRVK | GEAAGTFDS | GPLM_Gen |
| 17 | ND ND 1.02 ND ND ND | 0/18 | GFTLNSYGSS | VIYSDGYRTFYSDSVK | GRAAGTFDS | Ctrl |
| 18 | 0.17 0.59 0.06 -0.10 -0.37 0.27 | 0/18 | GFDLNEYGIS | VIYADGKRTSYADSVK | GENAGTFDV | En_Gen |
| 19 | -1.15 -1.61 -1.57 -1.87 -1.32 -1.40 | 0/18 | GFDLNEYGIS | VIYADGVRKAYADSVK | GNVAGTFDM | En_Gen |
| 20 | ND ND ND ND ND ND | 0/18 | GFSLNEYGIS | VIYADGQRKSYADNFK | GYQGSRVSL | En_Gibbs |
| 21 | 2.56 ND ND ND ND ND | 2/18 (2.43) | GFDLQEQGIS | VIYADGKRTAYAQNVK | GYIVGDQFD | En_Gibbs |
| 22 | 0.86 0.85 0.82 0.48 0.90 0.62 | 0/18 | GFSLNNYGIS | VIYSDGRRTFYIDSVK | GKAAGTFDS | GPLM_Gen |
| 23 | ND ND ND ND ND ND | 1/18 (2.41) | GFPIDEYGIS | VIYADGRRTVYSDNVK | GNYGASIAV | En_Gibbs |
| 24 | ND ND ND ND 0.48 0.61 | 0/18 | GFDLNSYGIS | VIYSDGQRTFYGDSVK | GRTAGTFDE | GP_Gibbs |
| 25 | ND ND ND ND ND ND | 0/18 | GFDLNEYGVS | VIYADGIRTKYADSFK | GDVVVFLFQ | En_Gibbs |
| 26 | -0.11 -0.08 0.04 0.01 0.35 0.04 | 1/18 (2.20) | MFDLNSYGIS | VIYSDGRRTFYIDSVK | GQAAGTFDV | GP_Gibbs |
| 27 | ND ND ND ND ND ND | 0/18 | GFTLNEYGIS | VIYSDGRRTFYGDSVK | GRQAGTFWS | GP_HC |
| 28 | ND ND ND ND 1.90 1.40 | 0/18 | GFYLNSYGIS | VIYSDGRRTFYGDSVK | GKTAGTFDS | GPLM_Gen |
| 29 | -0.40 -0.56 -0.65 -0.78 -0.63 -0.67 | 0/18 | GFDLNEYGIS | VIYADGLRTFYTDSVK | GEVAGTFDV | En_HC |
| 30 | 2.10 0.80 0.99 0.73 ND ND | 0/18 | GFDLNSYGIS | VIYSDGRRTFYGDNVK | GRSAGTFDS | GP_Gibbs |
| 31 | ND ND ND ND ND ND | 0/18 | GFTLNEYGIS | VIYSDGRRTFYGDDVK | GRAAVTFDK | GP_HC |

Top 5 of the variants detected in all replicates, tightest first:

CDR-H1,CDR-H2,CDR-H3,group,"replicates, log10 nM",empty controls
GFDLNEYGIS,VIYADGVRKAYADSVK,GNVAGTFDM,En_Gen,-1.15 -1.61 -1.57 -1.87 -1.32 -1.40,0/18
GFDLNEYGIS,VIYADGLRTFYTDSVK,GEVAGTFDV,En_HC,-0.40 -0.56 -0.65 -0.78 -0.63 -0.67,0/18
GFNLEDYGIS,VIYADGRRTAYADSVK,GKVAGTFDV,En_HC,-0.51 -0.48 -0.67 -0.56 -0.50 -0.34,0/18
GFDLDEYGIS,VIYADGRRTAYSDSVK,GNNAGTFDL,En_Gen,0.00 -0.21 -0.23 -0.40 -0.55 -0.01,0/18
GFDLNEYGIS,VIYADGRRTFYADSVK,GEVGGTFDV,En_HC,-0.06 0.02 -0.29 -0.28 -0.16 0.09,0/18